Results on three sequences are retold here after patent publication US20220023401A1 (priority 2020, published 2022).

For assay [1], the system named is antisera from immunized Cynomolgus macaques. It counts as binding. Set-up: Specificity analysis of antisera (ELISA reactivity with peptide): unit not given here.
The test system of assay [2] is sera from vaccinated baboons (anti-Aβ antibodies). Type of assay: binding.
The test system of assay [3] is Aβ1-42. Set-up: species or system guinea pigs. To be noted: guinea pig, in vivo.
For assay [4], the system named is anti-Aβ antibodies in sera of immunized patients. It counts as binding, human.

“And” between values parts separate entries of the source, which are not always exact repeats. Equal entries are not always repeated.

Turning to “VHHQKLVFFA (PEPTIDE (1)..(10) Abeta 12-21 or APP 770(V683-A692); listed as Homo sapiens) [SEQ ID NO: 27]”, the “Specificity analysis of antisera (ELISA reactivity with peptide)” value in assay [1] was 0.046 and 0.082 and 0.057 and 0.083. The “ELISA Titer (Log10)” value in assay [2] is 0.16 Log10 and 0.23 Log10 and 0.12 Log10 and 0.11 Log10.
Turning to DAEFRHDSGY [SEQ ID NO: 6, Aβ1-10], the “immunogenicity of the peptide on its own” value in assay [3] is “non-immunogenic”. In addition, the “reaction of 10-mer peptide with immunized sera” value in assay [4] is reported as “reacted most strongly”. In assay [1], the “reactivity of 10-mer peptide with macaque immune sera” value is “strong specificity”. For the same sequence, the “reaction of 10-mer peptide with immune sera” value in assay [2] was “reacted strongly”.
As to “EVHHQKLVFF (PEPTIDE (1)..(10) Abeta 11-20 or APP 770(E682-F691); listed as Homo sapiens) [SEQ ID NO: 26]”, in assay [1], the “Specificity analysis of antisera (ELISA reactivity with peptide)” value was 0.044 and 0.051 and 0.042. In addition, the “ELISA Titer (Log10)” value in assay [2] was 0.17 Log10 and 0.26 Log10 and 0.13 Log10.
